Screens: PubChem, Broad Institute
E-selectin induc = E-selectin induction in HUVECs, primary screen, imaging, HUVEC, immunofluorescence imaging, single point. AID 686992, 2013. normalized: neutral wells 0, TNF-alpha wells 100. activation, % at 7.58 µM. hit rate 0.37% among 260,000;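 active means mean E-selectin-positive cell signal at least 10% of the positive control, reached in at least 60% of replicates, without over 20% cell loss; inconclusive means no rule given, readout overlaps actives, possibly toxicity-flagged; inactive means the rest, including those meeting only one limit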
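Test system: HUVEC | Signal: Immunofluorescence imaging | Read-out: Percent E-selectin-positive cells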
ARNT TACC3 PPI = disruptors of ARNT/TACC3 protein interaction, primary screen, biochemical, AlphaScreen, single concentration. hit rate 0.66% among 390,000. AID 623870, 2012. AlphaScreen His-ARNT PAS-B/GST-TACC3 binding, luminescence; TACC3 fragment carries E629A point mutation. inhibition, % at 9.99 µM;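 active means mean inhibition of replicates at least 50% and at least half of replicates each reaching 50%; inconclusive means half or more replicates reach 50% but mean below 50%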;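 further: 0% = complete ARNT plus TACC3 wells and 100% = ARNT alone without TACC3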
ERAP1 inh = human ERAP1 aminopeptidase inhibitors, primary screen, biochemical, single point, plate reader | Endoplasmic reticulum aminopeptidase 1 (Homo sapiens), Q9NZ08 | recombinant ERAP1, Leu-AMC fluorescence, 60 min | inhibition, % at 10.7 µM | hit rate 0.15% among 340,000 | AID 652197, 2013;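 active means mean replicate inhibition of at least 30%, or all replicates individually reaching that 30% level; inactive means mean below 30% and not every replicate reaching it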;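 further: 0% = neutral control wells and 100% = L-leucinethiol positive control wells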
S100A4 MyoIIA = inhibitors of S100A4-myosin IIA peptide binding, primary screen, biochemical, fluorescence polarization, TAMRA-MyoIIA peptide | Protein S100-A4 (Homo sapiens), P26447 | inhibition, % at 10.7 µM | hit rate 0.14% among 360,000;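 active means mean inhibition of at least 70% across replicates, with every replicate also reaching that level; inconclusive means mean inhibition reaches 70% but some replicates fall short; inactive means mean inhibition below 70%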
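Test system: S100A4 monomer protein. Medium: HEPES buffer with Ca2+, pH 7.2. Reagent: fluorescent myosin IIA peptide, 5 nM. Compound dosing: single-point compound testing. Timing: 5 min between mix addition and reading. Benchmarks: DMSO neutral and TFP positive wells.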
MLL AF4-AF9 inh = inhibitors of AF4 peptide binding to AF9, primary screen, biochemical, AlphaScreen, biotin-AF4 peptide, FLAG-AF9, single point | inhibition, % at 10 µM | hit rate 0.47% among 350,000;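 active means every replicate reaching a set inhibition limit, whatever the replicate mean, cut at about 25% in these data; inconclusive means mean inhibition reaches that limit but some replicates miss it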;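 further: 0% = plate neutral control median and 100% = total signal loss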
Yeast UUG start = modulators of yeast start codon fidelity, primary screen, whole organism, S. cerevisiae, single point, plate reader | AID 602363, 2012 | actives 0.13% (n = 350,000) | activity score, % at 18.7 µM | S. cerevisiae UUG-firefly luciferase reporter, luminescence/redox ratio;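 active means replicate mean at a twofold rise or more, about +100% in these data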;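 further: firefly luciferase made from a UUG start codon reports start codon fidelity; reporter light over untreated wells divided by growth signal over untreated wells; some hits fall short of that in this replicate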
* marks the source's active call; other numbers are inactive results; ? = inconclusive; / = no result given. Hits are enriched below; roughly 1.3% of the tested compounds scored in any of these assays.

SMILES	E-selectin induc	ARNT TACC3 PPI	ERAP1 inh	S100A4 MyoIIA	MLL AF4-AF9 inh	Yeast UUG start
Cc1cc(=O)[nH]c(N/N=C/C2=C(N3CCOCC3)C(=C\c3ccc(Cl)cc3)/CC2)n1	0	24*	0	-4	9	/
Cc1cc(=O)[nH]c(NN=Cc2c(Cl)cccc2Cl)n1	0	-9	-1	5	-7	-13
CSc1ccc(/C=N/Nc2nc(C)cc(=O)[nH]2)cc1	/	14	2	-4	0	-15
COc1ccccc1C=NNc1nc(C)cc(=O)[nH]1	0	0	-3	3	-1	-17
Cc1cc(=O)[nH]c(N/N=C/c2c(O)n(-c3ccccc3)c(=O)c3ccccc23)n1	1	72*	0	-1	3	-24
Cc1cc(=O)[nH]c(N/N=C/c2ccc(O)c(O)c2)n1	0	67*	-2	6	0	/
Cc1cc(C)nc(N/N=C/C2=C(N3CCOCC3)C(=C/c3ccccc3)/CC2)n1	/	20	/	/	/	-37
C[C@@H]1CCCCO[C@@H](CN(C)C(=O)C2CCCCC2)[C@H](C)CN([C@@H](C)CO)C(=O)c2cc(NC(=O)C3CCCCC3)ccc2O1	0	-6	2	-4	-2	3
O=C(C[C@@H]1C=C[C@@H](NC(=O)C2CCC2)[C@@H](CO)O1)NCc1ccncc1	0	-5	-2	-4	0	-5
C[C@H]1CN([C@@H](C)CO)C(=O)c2cc(-c3ccc(C(=O)N(C)C)cc3)cnc2O[C@H]1CN(C)C(=O)c1ccncc1	-1	-5	1	0	-10	/
CS(=O)(=O)N1CC2(C1)[C@@H](c1ccccc1)[C@@H](CO)N2CCC(F)(F)F	0	/	0	3	-2	/
Cc1oc2cc3oc(=O)c(CC(=O)O)c(C)c3cc2c1-c1ccccc1	0	-2	-9	-3	-2	-15
Cc1c(CCC(=O)O)c(=O)oc2cc3occ(-c4ccc(Cl)cc4)c3cc12	0	45*	4	-1	2	-7
Cc1oc2c(C)c3oc(=O)c(CCC(=O)O)c(C)c3cc2c1-c1ccccc1	0	26*	3	0	-1	-13
CCC(=O)N1CC2(C1)[C@H](c1ccc(-c3ccc(F)cc3)cc1)[C@H](CO)N2C(=O)CC	0	/	3	-3	0	/
C[C@H]1CN([C@@H](C)CO)C(=O)c2cccc(NS(=O)(=O)c3cn(C)cn3)c2O[C@H]1CN(C)C	5	-4	0	4	-2	2
COCCCNC(=S)NNC(=O)c1csc(C)n1	/	57*	0	0	5	/
COc1ccc(NC(=O)CN(C)C(=O)C2CC(=O)N(c3ccc4c(c3)OCCO4)C2)cc1 (stereo not drawn)	-1	6	-1	154*	16	/
Cc1noc(C)c1S(=O)(=O)Nc1ccc2c(c1)C(=O)N([C@H](C)CO)C[C@@H](C)[C@H](CN(C)Cc1ccc(C(F)(F)F)cc1)O2	0	9	-4	11	-3	-4
O=C(COC(=O)c1ccc(-c2ccc([N+](=O)[O-])cc2)o1)NC(=O)NC12CC3CC(CC(C3)C1)C2	149*	1	-1	-1	5	/
NC(=O)C1CCN(c2nc(-c3ccccc3F)cs2)CC1	2	5	-1	-2	3	1
CS(=O)(=O)c1ccccc1-c1csc(N2CCC(C(N)=O)CC2)n1	41*	/	0	-1	-1	/
COc1ccccc1-c1cnc2c(c1)C(=O)N([C@H](C)CO)C[C@H](C)[C@H](CN(C)Cc1ccncc1)O2	0	-6	2	-10	-3	-11
Oc1ccc(NC(=S)Nc2ccc(F)cc2)cc1	0	/	3	-1	-1	-21

By substructure: the entries above with fluorine
SMILES	E-selectin induc	ARNT TACC3 PPI	ERAP1 inh	S100A4 MyoIIA	MLL AF4-AF9 inh	Yeast UUG start
CS(=O)(=O)N1CC2(C1)[C@@H](c1ccccc1)[C@@H](CO)N2CCC(F)(F)F	0	/	0	3	-2	/
CCC(=O)N1CC2(C1)[C@H](c1ccc(-c3ccc(F)cc3)cc1)[C@H](CO)N2C(=O)CC	0	/	3	-3	0	/
Cc1noc(C)c1S(=O)(=O)Nc1ccc2c(c1)C(=O)N([C@H](C)CO)C[C@@H](C)[C@H](CN(C)Cc1ccc(C(F)(F)F)cc1)O2	0	9	-4	11	-3	-4
NC(=O)C1CCN(c2nc(-c3ccccc3F)cs2)CC1	2	5	-1	-2	3	1
Oc1ccc(NC(=S)Nc2ccc(F)cc2)cc1	0	/	3	-1	-1	-21

(listing goes on)
SMILES	E-selectin induc	ARNT TACC3 PPI	ERAP1 inh	S100A4 MyoIIA	MLL AF4-AF9 inh	Yeast UUG start
CCN(CC)c1ccc(NC(=S)Nc2ccc(F)cc2)cc1	/	31	1	-8	27*	-4
O=C(c1c(F)cccc1F)N(Cc1ccccc1)Cc1ccccc1	32*	-32	-4	-2	-1	-1
COc1ccc(NC(=O)Nc2ccc3c(c2)C(=O)N([C@H](C)CO)C[C@@H](C)[C@H](CN(C)S(=O)(=O)c2cn(C)cn2)O3)cc1	0	-2	2	6	-2	-10
C[C@H]1CN([C@@H](C)CO)C(=O)c2cccc(NC(=O)Nc3ccc(F)cc3)c2O[C@H]1CN(C)Cc1ccncc1	58*	4	-1	2	-1	-6
C[C@@H]1CN([C@@H](C)CO)C(=O)c2cccc(NC(=O)Nc3ccc(F)cc3)c2O[C@@H]1CN(C)Cc1ccncc1	65*	-7	0	3	-1	-3
C[C@@H]1CN([C@H](C)CO)C(=O)c2cccc(NC(=O)Nc3ccc(F)cc3)c2O[C@H]1CN(C)Cc1ccncc1	40*	/	1	2	-3	8
C[C@@H]1CN([C@H](C)CO)C(=O)c2cccc(NC(=O)Nc3ccc(C(F)(F)F)cc3)c2O[C@H]1CN(C)Cc1ccncc1	-10	2	0	2	?	-5
C[C@@H]1CN([C@H](C)CO)C(=O)c2cccc(NC(=O)Nc3ccccc3)c2O[C@H]1CN(C)Cc1ccncc1	0	-7	0	-3	0	-20
COc1ccc(CN(C)C[C@@H]2Oc3ccc(NS(C)(=O)=O)cc3C(=O)N([C@H](C)CO)C[C@@H]2C)cc1	2	1	0	-2	-2	-8
NC(CO)C(=O)NNCc1ccc(O)c(O)c1O (stereo not drawn)	0	57*	3	6	7	1
CCOC(=O)c1nnn(CC(=O)Nc2ccccc2)c1C(=O)OCC	/	2	43*	-8	0	/
Cc1oc(-c2ccc(F)cc2)nc1CN(Cc1ccccn1)CC1CCCO1 (stereo not drawn)	/	50*	0	1	2	-4
Clc1ccc(-c2noc(CN(Cc3ccccn3)CC3CCCO3)n2)cc1 (stereo not drawn)	/	4	4	-8	-1	/
COc1ccc2c3c([nH]c2c1)[C@@H](CO)N(C(=O)C1CCCC1)CC31CN(C)C1	0	/	0	4	2	/
NC(=NCCc1c[nH]c2ccccc12)NS(=O)(=O)c1cc(F)ccc1F	0	6	43*	2	7	1
CC(C)Cc1nc2c(nnn2Cc2ccccc2F)c(=O)[nH]1	9	1	/	-5	38*	/
CSCc1cc(N(C)c2ccccc2)nc(-c2ccccn2)n1	0	61*	5	0	4	-32
